# Literature values as cited in patent US8828988B2 (Tetraphase Pharmaceuticals, Inc., priority 2009, dated 2014).
# Conditions: stated for comparison; cited from earlier work
compound,measurement,value
"CN(C)[C@@H]1C(O)=C(C(N)=O)C(=O)[C@@]2(O)C(O)=C3C(=O)c4c(O)cccc4[C@@](C)(O)[C@H]3C[C@@H]12 [Tetracycline, tetracycline, reference compound]",oral bioavailability in rats,12.1%
